Assay results from PubChem BioAssay (NCI).
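Five compound concentrations were applied to cells in 96-well plates for 48 hours; endpoints were derived by simple linear interpolation of the resulting dose-response curve. The concentration for 50% growth inhibition is given as GI50. TGI is the concentration that stops growth completely.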

How the values were obtained:
Test in all cases: NCI-60 cell line screen, 48 h
A549 NSCLC = test system: A549 NSCLC
MDA-N = test system: MDA-N
OVCAR-5 ovarian = test system: OVCAR-5 ovarian
CCRF-CEM leukemia = test system: CCRF-CEM leukemia
MOLT-4 leukemia = test system: MOLT-4 leukemia
T-47D breast = test system: T-47D breast
SK-MEL-2 melanoma = test system: SK-MEL-2 melanoma
SNB-19 CNS = test system: SNB-19 CNS
RPMI-8226 leukemia = test system: RPMI-8226 leukemia
OVCAR-8 ovarian = test system: OVCAR-8 ovarian
COLO 205 colon = test system: COLO 205 colon
MDA-MB-231 breast = test system: MDA-MB-231 breast
M14 melanoma = test system: M14 melanoma
HS 578T breast = test system: HS 578T breast
U251 CNS = test system: U251 CNS
MCF7 breast = test system: MCF7 breast
HOP-92 NSCLC = test system: HOP-92 NSCLC
KM12 colon = test system: KM12 colon
LOX IMVI melanoma = test system: LOX IMVI melanoma
SN12C renal = test system: SN12C renal
UACC-257 melanoma = test system: UACC-257 melanoma
MDA-MB-435 = test system: MDA-MB-435
MALME-3M melanoma = test system: MALME-3M melanoma
HOP-62 NSCLC = test system: HOP-62 NSCLC
BT-549 breast = test system: BT-549 breast
A498 renal = test system: A498 renal
UO-31 renal = test system: UO-31 renal
DU-145 prostate = test system: DU-145 prostate
NCI-H322M lung = test system: NCI-H322M lung
UACC-62 melanoma = test system: UACC-62 melanoma
SW-620 colon = test system: SW-620 colon
CAKI-1 renal = test system: CAKI-1 renal
TK-10 renal = test system: TK-10 renal
SR leukemia = test system: SR leukemia
EKVX NSCLC = test system: EKVX NSCLC
RXF 393 renal = test system: RXF 393 renal
HL-60(TB) leukemia = test system: HL-60(TB) leukemia
K-562 leukemia = test system: K-562 leukemia
NCI/ADR-RES ovarian = test system: NCI/ADR-RES ovarian
SK-MEL-5 melanoma = test system: SK-MEL-5 melanoma
ACHN renal = test system: ACHN renal
NCI-H23 lung = test system: NCI-H23 lung
SF-295 CNS = test system: SF-295 CNS
NCI-H226 lung = test system: NCI-H226 lung
786-0 renal = test system: 786-0 renal
SK-OV-3 ovarian = test system: SK-OV-3 ovarian
OVCAR-4 ovarian = test system: OVCAR-4 ovarian
PC-3 prostate = test system: PC-3 prostate
NCI-H460 lung = test system: NCI-H460 lung
SK-MEL-28 melanoma = test system: SK-MEL-28 melanoma
OVCAR-3 ovarian = test system: OVCAR-3 ovarian
IGROV1 ovarian = test system: IGROV1 ovarian
HCC-2998 colon = test system: HCC-2998 colon
SF-268 CNS = test system: SF-268 CNS
SNB-75 CNS = test system: SNB-75 CNS
NCI-H522 lung = test system: NCI-H522 lung
HCT-15 colon = test system: HCT-15 colon
HT29 colon = test system: HT29 colon
HCT-116 colon = test system: HCT-116 colon

With `O=C(OCCC(F)([N+](=O)[O-])[N+](=O)[O-])OCC(F)([N+](=O)[O-])[N+](=O)[O-]` the GI50 (A549 NSCLC) was 8.6 µM, the TGI (A549 NSCLC) was 36.2 µM and the GI50 (MDA-N) was 1.17 µM. The TGI (MDA-N) was 2.61 µM, the GI50 (OVCAR-5 ovarian) was 2.9 µM and the TGI (OVCAR-5 ovarian) was 7.66 µM. It also gave a GI50 (CCRF-CEM leukemia) of 0.68 µM, a TGI (CCRF-CEM leukemia) greater than 100 µM and a GI50 (MOLT-4 leukemia) of 1.64 µM. The TGI (MOLT-4 leukemia) was 6.04 µM, the GI50 (T-47D breast) was 1.98 µM and the TGI (T-47D breast) was 5.67 µM. It also gave a GI50 (SK-MEL-2 melanoma) of 2 µM, a TGI (SK-MEL-2 melanoma) of 5.03 µM and a GI50 (SNB-19 CNS) of 5.63 µM. The TGI (SNB-19 CNS) was 18.6 µM, the GI50 (RPMI-8226 leukemia) was 0.526 µM and the TGI (RPMI-8226 leukemia) was 3.13 µM. For the same molecule, the GI50 (OVCAR-8 ovarian) was 1.74 µM, the TGI (OVCAR-8 ovarian) was 17.1 µM and the GI50 (COLO 205 colon) was 1.59 µM. It also gave a TGI (COLO 205 colon) of 3.71 µM, a GI50 (MDA-MB-231 breast) of 1.85 µM and a TGI (MDA-MB-231 breast) of 3.78 µM. It also gave a GI50 (M14 melanoma) of 1.78 µM, a TGI (M14 melanoma) of 4.02 µM and a GI50 (HS 578T breast) of 3.22 µM. For the same molecule, the TGI (HS 578T breast) was 23.4 µM, the GI50 (U251 CNS) was 2.06 µM and the TGI (U251 CNS) was 4.61 µM. For the same molecule, the GI50 (MCF7 breast) was 1.83 µM, the TGI (MCF7 breast) was 15.6 µM and the GI50 (HOP-92 NSCLC) was 1.86 µM. It also gave a TGI (HOP-92 NSCLC) of 4.61 µM, a GI50 (KM12 colon) of 1.15 µM and a TGI (KM12 colon) of 2.49 µM. For the same molecule, the GI50 (LOX IMVI melanoma) was 1.78 µM, the TGI (LOX IMVI melanoma) was 16.1 µM and the GI50 (SN12C renal) was 1.71 µM. It also gave a TGI (SN12C renal) of 3.33 µM, a GI50 (UACC-257 melanoma) of 2.34 µM and a TGI (UACC-257 melanoma) of 5.78 µM. The GI50 (MDA-MB-435) was 1.47 µM, the TGI (MDA-MB-435) was 3.76 µM and the GI50 (MALME-3M melanoma) was 1.74 µM. It also gave a TGI (MALME-3M melanoma) of 3.82 µM, a GI50 (HOP-62 NSCLC) of 2.02 µM and a TGI (HOP-62 NSCLC) of 4.32 µM. The GI50 (BT-549 breast) was 2.03 µM, the TGI (BT-549 breast) was 4.73 µM and the GI50 (A498 renal) was 13 µM. It also gave a TGI (A498 renal) of 31.4 µM, a GI50 (UO-31 renal) of 1.09 µM and a TGI (UO-31 renal) of 2.61 µM. For the same molecule, the GI50 (DU-145 prostate) was 1.72 µM, the TGI (DU-145 prostate) was 3.34 µM and the GI50 (NCI-H322M lung) was 13.8 µM. For the same molecule, the TGI (NCI-H322M lung) was 32.6 µM, the GI50 (UACC-62 melanoma) was 1.87 µM and the TGI (UACC-62 melanoma) was 4.19 µM. It also gave a GI50 (SW-620 colon) of 0.949 µM, a TGI (SW-620 colon) of 2.35 µM and a GI50 (CAKI-1 renal) of 1.74 µM. The TGI (CAKI-1 renal) was 3.29 µM, the GI50 (TK-10 renal) was 2.23 µM and the TGI (TK-10 renal) was 16.4 µM. For the same molecule, the GI50 (SR leukemia) was 0.369 µM, the TGI (SR leukemia) was 2.58 µM and the GI50 (EKVX NSCLC) was 2.12 µM. For the same molecule, the TGI (EKVX NSCLC) was 5.02 µM, the GI50 (RXF 393 renal) was 10.1 µM and the TGI (RXF 393 renal) was 23.6 µM. The GI50 (HL-60(TB) leukemia) was 0.387 µM, the TGI (HL-60(TB) leukemia) was 9.99 µM and the GI50 (K-562 leukemia) was 0.32 µM. The TGI (K-562 leukemia) was 13.9 µM, the GI50 (NCI/ADR-RES ovarian) was 2.13 µM and the TGI (NCI/ADR-RES ovarian) was 21 µM. For the same molecule, the GI50 (SK-MEL-5 melanoma) was 1.64 µM, the TGI (SK-MEL-5 melanoma) was 4.09 µM and the GI50 (ACHN renal) was 1.56 µM. The TGI (ACHN renal) was 3.96 µM, the GI50 (NCI-H23 lung) was 2.16 µM and the TGI (NCI-H23 lung) was 14.7 µM. The GI50 (SF-295 CNS) was 8.26 µM, the TGI (SF-295 CNS) was 23.9 µM and the GI50 (NCI-H226 lung) was 9.1 µM. It also gave a TGI (NCI-H226 lung) of 38.8 µM, a GI50 (786-0 renal) of 0.51 µM and a TGI (786-0 renal) of 1.76 µM. For the same molecule, the GI50 (SK-OV-3 ovarian) was 7.54 µM, the TGI (SK-OV-3 ovarian) was 22.5 µM and the GI50 (OVCAR-4 ovarian) was 2.65 µM. It also gave a TGI (OVCAR-4 ovarian) of 19.5 µM, a GI50 (PC-3 prostate) of 1.6 µM and a TGI (PC-3 prostate) of 3.26 µM. It also gave a GI50 (NCI-H460 lung) of 2.99 µM, a TGI (NCI-H460 lung) of 12.1 µM and a GI50 (SK-MEL-28 melanoma) of 2.24 µM. For the same molecule, the TGI (SK-MEL-28 melanoma) was 4.22 µM, the GI50 (OVCAR-3 ovarian) was 1.58 µM and the TGI (OVCAR-3 ovarian) was 3.44 µM. For the same molecule, the GI50 (IGROV1 ovarian) was 0.917 µM, the TGI (IGROV1 ovarian) was 2.61 µM and the GI50 (HCC-2998 colon) was 1.54 µM. For the same molecule, the TGI (HCC-2998 colon) was 3.72 µM, the GI50 (SF-268 CNS) was 2.44 µM and the TGI (SF-268 CNS) was 19.4 µM. The GI50 (SNB-75 CNS) was 6.71 µM, the TGI (SNB-75 CNS) was 22.8 µM and the GI50 (NCI-H522 lung) was 0.563 µM. It also gave a TGI (NCI-H522 lung) of 2.26 µM, a GI50 (HCT-15 colon) of 1.09 µM and a TGI (HCT-15 colon) of 14.3 µM. It also gave a GI50 (HT29 colon) of 2.34 µM, a TGI (HT29 colon) greater than 100 µM and a GI50 (HCT-116 colon) of 1.3 µM. The TGI (HCT-116 colon) was 2.72 µM.
